Experimental data as given in publication PMC2614347, “A Novel Peptide Enhances Therapeutic Efficacy of Liposomal Anti-Cancer Drugs in Mice Models of Human Lung Cancer” (PLoS ONE, 2009).

Tests used:
Type in all cases: in vivo, SCID mice
CL1-5-derived xenografts = test: Ligand-targeted therapy of lung cancer xenografts; settings: doxorubicin 1 mg/kg i.v. twice a week, eight injections (total 8 mg/kg); tumors 50-100 mm^3 at start; n = 6
Experimental: Mice 4–6 weeks of age were injected s.c. in the dorsolateral flank with human NSCLC cells. […] Mouse body weights and tumor sizes were measured twice a week. Tumor volumes were calculated using the equation: length×(width)^2×0.52. Animal care was carried out in accordance with guidelines of Academia Sinica, Taiwan.

H460-derived xenografts = test: Ligand-targeted therapy of lung cancer xenografts; settings: doxorubicin 1 mg/kg i.v. twice a week, eight injections (total 8 mg/kg); n = 6
[1] = Pharmacokinetic and biodistribution study of doxorubicin formulations; settings: 2 mg/kg i.v.; NSCLC xenografts ~500 mm^3; spectrofluorometry; n = 3 per time point
Experimental: SCID mice bearing NSCLC xenografts (∼500 mm^3), were injected in the tail vein with various formulations of liposomal doxorubicin (SP5-2-LD, MP5-2-LD, and LD) and free doxorubicin at a dose of 2 mg/kg. At selected time points, three mice in each group were anaesthetized and sacrificed. Blood samples were collected through submaxillary punctures, and plasma samples were prepared. After perfusion, xenograft tumors and mouse organs were removed and homogenized. […] Total doxorubicin concentration was measured using a method described by Mayer et al.. […] Tissue concentrations of doxorubicin were expressed as microequivalents per milliliter of plasma or per gram of tissue. A standard doxorubicin curve was prepared in control homogenates following the same extraction procedure as above. Drug levels were estimated on the basis of doxorubicin fluorescent equivalents.

- AUC0–48 hours of doxorubicin in tumor tissues [1]: 10.4 µg·h/g
Compound: COc1cccc2c1C(=O)c1c(O)c3c(c(O)c1C2=O)C[C@@](O)(C(=O)CO)C[C@@H]3O[C@H]1C[C@H](N)[C@H](O)[C@H](C)O1 [FD, doxorubicin]
- Tumor size relative to that in the SP5-2-LD group (CL1-5-derived xenografts): 7.0 times larger
- Tumor size relative to that in the SP5-2-LD group (H460-derived xenografts): 8.6 fold larger
